Experiment [1] concerns the target HLA-A*0101 (Homo sapiens, UniProt P04439, A114D/A174V/A182V/D101N/D185E/E176A/E190D/L180R/Q94H/R68K/S129P/T187R/V100A/V91M/W191G). Put plainly: Class I peptide-binding assay, A*0101. The note with it: for change of HLA-A*0101 binding affinity of analog: result in words; for IC50: binding affinity (IC50) to HLA-A*0101, running text.
Experiment [2] deals with B*4501 (Homo sapiens, UniProt P01889, A329T/A65T/A93T/A95T/C349S/D138N/D201E/D98Y/E176V/E187L/E204Q/E69K/H137Y/K202T/L119W/N87E/Q56L/Q94N/R155S/R180D/S121R/S35A/S48T/V127L/V306I/V36M/W191S/Y140L/Y33H/Y91S). The experiment can be described thus: B44 supertype peptide binding, B*4501. The note with it: CEA-derived B44 peptides; binding affinity, unit inferred; read-out: B* 4501.

Experiment [3] deals with B*4001(B60) (Homo sapiens, UniProt P01889, A65T/A93T/A95T/D138N/D98Y/E176V/E69K/N87E/Q56L/Q94N/R180L/S121R/S35A/S48T/T167S/V36M/W171L/Y33H/Y91S). Put plainly: B44 supertype peptide binding, B*4001. To be noted: CEA-derived B44 peptides; binding affinity, unit inferred; read-out: B* 4001.
In experiment [4] the target is B*4403 (Homo sapiens, UniProt P01889, A223V/A65T/A93T/A95T/D201E/D98Y/E176V/E187L/E204Q/E69K/G107R/H137Y/K202T/L105A/L119I/N104T/N87E/Q56L/Q94N/R106L/R155S/R180L/S101N/S121R/S35A/S48T/T118I/V36M/W191S/Y140D/Y91S). The experiment can be described thus: B44 supertype peptide binding, B*4403. To be noted: CEA-derived B44 peptides; binding affinity, unit inferred; read-out: B* 4403.

In experiment [5] the target is B*1801 (Homo sapiens, UniProt P01889, A329T/A93T/A95T/C349S/D201E/D54G/D98Y/E176V/E187T/E204Q/E69T/K202T/Q94N/R155S/R180L/S121R/V306I/Y140S/Y195H/Y33H/Y91S). The experiment can be described thus: B44 supertype peptide binding, B*1801. The note with it: CEA-derived B44 peptides; binding affinity, unit inferred.
The target of experiment [6] is B*4002 (B61) (Homo sapiens, UniProt P01889, A65T/A93T/A95T/D138N/D201E/D98Y/E176V/E204Q/E69K/K202T/N87E/Q56L/Q94N/R180L/S48T/Y33H/Y91S). Put plainly: B44 supertype peptide binding, B*4002. The note with it: CEA-derived B44 peptides; binding affinity, unit inferred; read-out: B* 4002.
Experiment [7] has as its target B*4402 (Homo sapiens, UniProt P01889, A223V/A65T/A93T/A95T/D201E/D98Y/E176V/E187L/E204Q/E69K/G107R/H137Y/K202T/L105A/L119I/N104T/N87E/Q56L/Q94N/R106L/R155S/R180D/S101N/S121R/S35A/S48T/T118I/V36M/W191S/Y140D/Y91S). Put plainly: B44 supertype peptide binding, B*4402. The note with it: CEA-derived B44 peptides; binding affinity, unit inferred; read-out: B* 4402.
For experiment [8], the system named is B44 supertype (B*1801, B*4001, B*4002, B*4402, B*4403, B*4501). Put plainly: B44 supertype cross-binding (degeneracy, alleles bound). The note with it: number of the six B44 supertype alleles bound. Further details: species or system human.

The text below walks through data of EP1903056A2, “HLA-A1, -A2 -A3, -A24, -B7, and -B44 tumor associated antigen peptides and compositions” (priority 2002, dated 2004).

`CSCC[C@H](N)C(=O)N[C@H](C(=O)N[C@@H](CC(=O)O)C(=O)N[C@@H](CC(C)C)C(=O)N[C@H](C(=O)N[C@@H](CC(=O)O)C(=O)N[C@@H](C)C(=O)N[C@@H](CCC(=O)O)C(=O)N[C@@H](CCC(=O)O)C(=O)N[C@@H](Cc1ccc(O)cc1)C(=O)O)C(C)C)[C@@H](C)O`: the “change of HLA-A*0101 binding affinity of analog” value (“change … of analog” for short) in experiment [1] is listed as “significantly improved binding affinity”.

Consider `C[C@H](NC(=O)[C@@H](NC(=O)[C@H](CC(=O)O)NC(=O)[C@@H](NC(=O)CN)[C@@H](C)O)[C@@H](C)O)C(=O)N[C@@H](CCC(=O)O)C(=O)N[C@@H](CC(N)=O)C(=O)N1CCC[C@H]1C(=O)N[C@@H](CCC(=O)O)C(=O)N[C@@H](Cc1ccc(O)cc1)C(=O)O`, for which, in experiment [1], the “change … of analog” value was “significantly improved binding affinity”.

`CC(C)C[C@H](NC(=O)[C@@H]1CCCN1C(=O)[C@H](CC(=O)O)NC(=O)[C@H](C)NC(=O)[C@@H]1CCCN1)C(=O)N[C@@H](CC(=O)O)C(=O)N[C@@H](CO)C(=O)N[C@H](C(=O)N[C@@H](Cc1ccccc1)C(=O)N[C@@H](Cc1ccc(O)cc1)C(=O)O)[C@@H](C)O`: the “change … of analog” value in experiment [1] was “significantly improved binding affinity”.

As to `CC[C@H](C)[C@H](N)C(=O)N[C@H](C(=O)N[C@@H](CC(=O)O)C(=O)N[C@@H](CC(N)=O)C(=O)N[C@@H](CC(N)=O)C(=O)N[C@@H](CO)C(=O)NCC(=O)N[C@@H](CO)C(=O)N[C@@H](Cc1ccc(O)cc1)C(=O)O)[C@@H](C)O` [CEA.289D3], the IC50 in experiment [1] is ≤ 0.1 µM.

In the case of `CC[C@H](C)[C@H](NC(=O)[C@@H](N)[C@@H](C)O)C(=O)N[C@@H](CC(=O)O)C(=O)N1CCC[C@H]1C(=O)N[C@@H](CO)C(=O)N[C@@H](Cc1ccc(O)cc1)C(=O)N[C@H](C(=O)N[C@@H](Cc1ccc(O)cc1)C(=O)N[C@@H](Cc1ccc(O)cc1)C(=O)O)[C@@H](C)O` [CEA.419D3], in experiment [1], the IC50 is ≤ 0.1 µM.

As for `CC(C)C[C@H](NC(=O)[C@H](CC(C)C)NC(=O)[C@H](CC(C)C)NC(=O)[C@@H](NC(=O)[C@H](CCC(=O)O)NC(=O)[C@H](CCCCN)NC(=O)CNC(=O)[C@H](CCC(=O)O)NC(=O)[C@H](C)N)C(C)C)C(=O)O` [compound 368], the IC50 in experiment [2] worked out at 0.161 µM; in experiment [3], 0.034 µM; in experiment [4] it was 0.0015 µM; in experiment [5], 0.359 µM; in experiment [6], 0.06 µM; in experiment [7], 0.179 µM. In experiment [8], the Degeneracy worked out at 6.

For the compound `CC[C@H](C)[C@H](NC(=O)[C@H](CC(N)=O)NC(=O)[C@@H]1CCCN1C(=O)[C@@H](NC(=O)[C@H](Cc1ccccc1)NC(=O)[C@H](CC(C)C)NC(=O)[C@H](CCC(=O)O)NC(=O)[C@@H](N)CCC(N)=O)[C@@H](C)CC)C(=O)N[C@H](C(=O)N[C@H](C(=O)O)C(C)C)[C@@H](C)O` [compound 369], the IC50 came out at 0.014 µM in experiment [2]; 0.121 µM in experiment [3]; 0.0026 µM in experiment [4]; 0.081 µM in experiment [5]; 0.027 µM in experiment [6]; 0.048 µM in experiment [7]. Also, in experiment [8], the Degeneracy is 6.

Regarding `CC(C)[C@H](NC(=O)[C@H](CCCNC(=N)N)NC(=O)[C@H](Cc1ccccc1)NC(=O)[C@H](CCC(N)=O)NC(=O)CNC(=O)[C@@H](NC(=O)[C@H](C)NC(=O)[C@H](CCC(=O)O)NC(=O)[C@H](CCC(=O)O)NC(=O)[C@@H](N)CC(N)=O)[C@@H](C)O)C(=O)O` [compound 395], the IC50 was 0.405 µM in experiment [2]; > 10 µM in experiment [3]; 0.471 µM in experiment [4]; 0.998 µM in experiment [5]; > 10 µM in experiment [6]. In experiment [8], the Degeneracy amounted to 2.

Take `CC(C)[C@H](N)C(=O)N[C@@H](CCC(=O)O)C(=O)N[C@@H](CC(=O)O)C(=O)N[C@@H](CCCCN)C(=O)N[C@@H](CC(=O)O)C(=O)N[C@@H](C)C(=O)N[C@H](C(=O)N[C@@H](C)C(=O)N[C@@H](Cc1ccccc1)C(=O)N[C@H](C(=O)O)[C@@H](C)O)C(C)C` [compound 418]: the IC50 is > 10 µM in experiment [2]; 11.6 µM in experiment [3]; 0.803 µM in experiment [4]; 1.43 µM in experiment [5]; 2.08 µM in experiment [6]; 16.9 µM in experiment [7]. In experiment [8], this compound had a Degeneracy of 0.

On to `C[C@H](NC(=O)[C@H](CC(=O)O)NC(=O)[C@H](CCC(N)=O)NC(=O)[C@@H](NC(=O)[C@H](CCC(=O)O)NC(=O)[C@@H]1CCCN1C(=O)[C@H](CCC(=O)O)NC(=O)[C@@H](N)CS)[C@@H](C)O)C(=O)N[C@H](C(=O)N[C@@H](Cc1ccc(O)cc1)C(=O)O)[C@@H](C)O` [compound 419], for which the IC50 is > 10 µM in experiment [2]; > 10 µM in experiment [3]; 0.536 µM in experiment [4]; 1.35 µM in experiment [5]; > 10 µM in experiment [6]; 0.787 µM in experiment [7]. The same compound came in with a Degeneracy in experiment [8] of 0.

As to `C[C@H](NC(=O)[C@H](CC(=O)O)NC(=O)[C@H](CCC(N)=O)NC(=O)[C@@H](NC(=O)[C@H](CCC(=O)O)NC(=O)[C@@H]1CCCN1)[C@@H](C)O)C(=O)N[C@H](C(=O)N[C@@H](Cc1ccc(O)cc1)C(=O)O)[C@@H](C)O` [compound 420], the IC50 was > 10 µM in experiment [2]; > 10 µM in experiment [3]; 19.5 µM in experiment [4]; 10.8 µM in experiment [5]; > 10 µM in experiment [6]; 6.34 µM in experiment [7]. Further, in experiment [8], the Degeneracy worked out at 0.

Take `CC(C)C[C@H](NC(=O)[C@H](Cc1ccc(O)cc1)NC(=O)[C@@H](NC(=O)[C@H](C)NC(=O)[C@H](CC(=O)O)NC(=O)[C@H](CCC(N)=O)NC(=O)[C@@H](NC(=O)[C@H](CCC(=O)O)NC(=O)[C@@H]1CCCN1)[C@@H](C)O)[C@@H](C)O)C(=O)O` [compound 421]: the IC50 in experiment [2] was 13.4 µM; in experiment [3], 1.37 µM; in experiment [4], 2.49 µM; in experiment [5], 13.2 µM; in experiment [6], > 10 µM; in experiment [7] it was > 10 µM. In experiment [8], this compound returned a Degeneracy of 0.

Turning to `CC(C)C[C@H](NC(=O)[C@H](Cc1ccc(O)cc1)NC(=O)[C@@H](NC(=O)[C@H](C)NC(=O)[C@H](CC(=O)O)NC(=O)[C@H](CCC(N)=O)NC(=O)[C@@H](NC(=O)[C@H](CCC(=O)O)NC(=O)[C@@H]1CCCN1)[C@@H](C)O)[C@@H](C)O)C(=O)N[C@@H](Cc1c[nH]c2ccccc12)C(=O)O` [compound 422], the IC50 in experiment [2] was > 10 µM; in experiment [3], > 10 µM; in experiment [4], 0.915 µM; in experiment [5], 9.35 µM; in experiment [6], > 10 µM. The Degeneracy in experiment [8] is recorded as 0.

On to `CC(C)C[C@H](NC(=O)[C@H](C)NC(=O)[C@@H](NC(=O)[C@H](C)NC(=O)[C@H](CC(=O)O)NC(=O)[C@H](CCC(=O)O)NC(=O)[C@H](CC(=O)O)NC(=O)[C@H](CCC(=O)O)NC(=O)[C@@H](N)C(C)C)C(C)C)C(=O)N[C@H](C(=O)O)[C@@H](C)O` [compound 426], for which the IC50 in experiment [2] was > 10 µM; in experiment [3], 0.895 µM; in experiment [4], 2.68 µM; in experiment [5], 7.27 µM; in experiment [6], 2.36 µM; in experiment [7], 6.67 µM. The Degeneracy in experiment [8] turned out to be 0.

As for `CC[C@H](C)[C@H](NC(=O)[C@H](CCC(=O)O)NC(=O)[C@@H]1CCCN1)C(=O)N[C@@H](CCC(N)=O)C(=O)N[C@@H](CC(N)=O)C(=O)N[C@H](C(=O)N[C@H](C(=O)N[C@@H](Cc1ccc(O)cc1)C(=O)O)[C@@H](C)O)[C@@H](C)O` [compound 427], the IC50 in experiment [2] was > 10 µM; in experiment [3] it was 7.27 µM; in experiment [4] it was 1.62 µM; in experiment [5], 1.02 µM; in experiment [6], > 10 µM; in experiment [7] it was > 10 µM. The Degeneracy in experiment [8] is on record as 0.
